# Measured values reported in patent US5010106A, “Method of sterilizing anthers of plants” (dated 1991).
# Key:
# [1] = tested on: winter wheat of Mironovskaya 808 variety; experiment: Chemical sterilization of anthers, field test, winter wheat (isolated ears / open pollination); settings: Table 1, winter wheat Mironovskaya 808, V-th stage, 2% aqueous emulsion, 12 kg/ha; for Number of grains in ear under isolator: control 40.6; for Number of grains in ear in open pollination: control 42.6; for Percentage of setting of seeds in open pollination: control = 100%
# [2] = tested on: triticale of Amphidiploid 206 variety; experiment: Chemical sterilization of anthers, field test, triticale (isolated ears / open pollination); settings: Table 8, triticale Amphidiploid 206, VI-th stage, 2% aqueous emulsion, 12 kg/ha; for Number of grains in ear under isolator: control 23.4; for Number of grains in ear in open pollination: control 25.2; for Percentage of grain setting in open pollination: control = 100%
# [3] = tested on: triticale of PRAG-109 variety; experiment: as above; settings: Table 7, triticale PRAG-109, V-th stage, 2% aqueous emulsion, 12 kg/ha; for Number of grains in ear under isolator: control 41.3; for Number of grains in ear in open pollination: control 45.8; for Percentage of grain setting in open pollination: control = 100%
# [4] = tested on: tetraploid rye of Ukrainskaya tetra variety; experiment: Chemical sterilization of anthers, field test, tetraploid rye (isolated ears / open pollination); settings: Table 5, 1% aqueous emulsion, 8 kg/ha; for Number of grains in ear under isolator: control 28.0 (Examples 24, 25), 36.1 (Examples 26, 27); for Number of grains in ear in open pollination: control 36.8 (Examples 24, 25), 40.2 (Examples 26, 27); for Percentage of grain setting in open pollination: control = 100%
# [5] = tested on: diploid rye of Kharkovskaya 55 variety; experiment: Chemical sterilization of anthers, field test, diploid rye (isolated ears / open pollination); settings: Table 6, diploid rye Kharkovskaya 55, 1% aqueous emulsion, 6 kg/ha; for Number of grains in ear under isolator: control 31.5; for Number of grains in ear in open pollination: control 39.4; for Percentage of grain setting in open pollination: control = 100%
# [6] = tested on: spring wheat of Moskovskaya 35 variety; experiment: Chemical sterilization of anthers, field test, spring wheat (isolated ears / open pollination); settings: Table 2, spring wheat Moskovskaya 35, VI-th stage, 1% aqueous emulsion, 8 kg/ha; for Number of grains in ear under isolator: control 29.4; for Number of grains in ear in open pollination: control 31.2; for Percentage of grain setting in open pollination: control = 100%
# [7] = tested on: spring wheat of Botanicheskaya 4 variety; experiment: as above; settings: Table 3, spring wheat Botanicheskaya 4, V-th stage, 1% aqueous emulsion, 6 kg/ha; for Number of grains in ear under isolator: control 28.9; for Number of grains in ear in open pollination: control 30.9; for Percentage of grain setting in open pollination: control = 100%
# sunflower of BK-119 line = experiment: Chemical sterilization of sunflower pollen; settings: Table 13, V-th stage, 0.2% aqueous emulsion, 1.2 kg/ha
# [8] = tested on: sunflower of Peredovik variety; experiment: Chemical sterilization of sunflower pollen; settings: Table 13, V-th stage, 0.2% aqueous emulsion, 1.2 kg/ha
# [9] = tested on: millet of Mironovskoye 94 variety; experiment: Chemical sterilization of anthers, field test, millet (isolated panicles / open pollination); settings: Table 9, millet Mironovskoye 94, V-th stage, 1% aqueous emulsion, 10 kg/ha; for Number of grains in panicle under isolator: control 124.9
# animals = experiment: Toxicity in experiments on animals
smiles,measurement,setting,value
CC1=CCC2C(C1)C2(C)C (stereo not shown),Sterility percentage,[1],100.0%
same,Number of grains in ear under isolator,[1],0.0
same,Number of grains in ear in open pollination,[1],39.7
same,Percentage of setting of seeds in open pollination,[1],93.2%
same,Sterility percentage,[2],100.0%
same,Number of grains in ear under isolator,[2],0.0
same,Number of grains in ear in open pollination,[2],23.8
same,Percentage of grain setting in open pollination,[2],94.4%
same,Sterility percentage,[3],99.3%
same,Number of grains in ear under isolator,[3],0.3
same,Number of grains in ear in open pollination,[3],37.6
same,Percentage of grain setting in open pollination,[3],82.1%
same,Sterility percentage,[4],99.6%
same,Number of grains in ear under isolator,[4],0.1
same,Number of grains in ear in open pollination,[4],37.3
same,Percentage of grain setting in open pollination,[4],92.8%
same,Sterility percentage,[5],98.1%
same,Number of grains in ear under isolator,[5],0.6
same,Number of grains in ear in open pollination,[5],36.7
same,Percentage of grain setting in open pollination,[5],93.1%
same,Sterility percentage,[6],99.3%
same,Number of grains in ear under isolator,[6],0.2
same,Number of grains in ear in open pollination,[6],29.0
same,Percentage of grain setting in open pollination,[6],92.9%
same,Percentage of sterility,[7],100.0%
same,Number of grains in ear under isolator,[7],0.0
same,Number of grains in ear in open pollination,[7],27.8
same,Percentage of grain setting in open pollination,[7],90.0%
same,Number of sterile plants,sunflower of BK-119 line; control 0.0,100.0%
same,Oil content of achenes,sunflower of BK-119 line; control 51.0,51.7%
same,"Mass of 1,000 achenes",sunflower of BK-119 line; control 60.0,56.7 g
same,Percentage of setting of achenes pollination with the pollen mixture under isolator,sunflower of BK-119 line; control 72.6,0.0%
same,Percentage of setting in open pollination,sunflower of BK-119 line; control 85.0,82.5%
same,Germination rate of achenes,sunflower of BK-119 line; control 100.0,100.0%
same,Number of sterile plants,[8]; control 0.0,100.0%
same,Oil content of achenes,[8]; control 54.7,53.6%
same,"Mass of 1,000 achenes",[8]; control 84.0,84.0 g
same,Percentage of setting in open pollination,[8]; control 85.0,85.3%
same,Percentage of setting of achenes pollination with the pollen mixture under isolator,[8]; control 85.0,0.0%
same,Germination rate of achenes,[8]; control 100.0,100.0%
same,Sterility percentage,[9],100.0%
same,Number of grains in panicle under isolator,[9],0.0
CC1=CCC2CC1C2(C)C (stereo not shown),LD50,animals,"3,700 mg/kg"
same,Sterility percentage,[4],100.0%
same,Number of grains in ear under isolator,[4],0.0
same,Number of grains in ear in open pollination,[4],36.3
same,Percentage of grain setting in open pollination,[4],98.6%
same,Sterility percentage,[6],100.0%
same,Number of grains in ear under isolator,[6],0.0
same,Percentage of sterility,[7],100.0%
same,Number of grains in ear under isolator,[7],0.0
same,Number of grains in ear in open pollination,[7],29.2
same,Percentage of grain setting in open pollination,[7],94.5%
CC(=O)OC(C)(C)C1CC=C(C)CC1 (stereo not shown),Sterility percentage,[1],100.0%
same,Number of grains in ear under isolator,[1],0.0
same,Number of grains in ear in open pollination,[1],38.8
same,Percentage of setting of seeds in open pollination,[1],91.1%
same,Sterility percentage,[2],97.8%
same,Number of grains in ear under isolator,[2],0.4
same,Number of grains in ear in open pollination,[2],23.0
same,Percentage of grain setting in open pollination,[2],91.3%
same,Sterility percentage,[3],100.0%
same,Number of grains in ear under isolator,[3],0.0
same,Number of grains in ear in open pollination,[3],40.9
same,Percentage of grain setting in open pollination,[3],89.3%
same,Sterility percentage,[4],100.0%
same,Number of grains in ear under isolator,[4],0.0
same,Number of grains in ear in open pollination,[4],32.8
same,Percentage of grain setting in open pollination,[4],81.6%
same,Sterility percentage,[5],99.7%
same,Number of grains in ear under isolator,[5],0.1
same,Number of grains in ear in open pollination,[5],35.2
same,Percentage of grain setting in open pollination,[5],89.3%
same,Sterility percentage,[6],100.0%
same,Number of grains in ear under isolator,[6],0.0
same,Number of grains in ear in open pollination,[6],28.6
same,Percentage of grain setting in open pollination,[6],91.7%
same,Percentage of sterility,[7],100.0%
same,Number of grains in ear under isolator,[7],0.0
same,Number of grains in ear in open pollination,[7],29.5
same,Percentage of grain setting in open pollination,[7],95.5%
same,Sterility percentage,[9],100.0%
same,Number of grains in panicle under isolator,[9],0.0
same,Number of grains in panicle in open pollination,[9]; control 145.4,138.9
same,Percentage of grain setting in open pollination,[9]; control = 100%,95.5%
